Laboratory results published in patent publication US10385145B1, “Liquid photo initiating compound and uses of the same” (CHITEC TECHNOLOGY CO., LTD., priority 2018, dated 2019).

Assay: Solubility test: dissolution in acrylate mixtures I to III
Type: physicochemical
Conditions: one-hour ultrasonication at room temperature
Description: Mixtures I to III were prepared according to the composition provided below, and then 6 parts by weight of photoinitiator Trgacure® 369 (available from IGM), photoinitiator R-gen® 919 (available from Chitec Technology Co., Ltd.) or photo initiating compound Ia was added to each of the mixtures I to III. The obtained mixtures were ultrasonicated for 1 hour at room temperature, and the dissolution of each of Irgacure® 369, R-gen® 919 and photo initiating compound Ia was observed and described in the following Table 1.

CCC(Cc1ccccc1)(C(=O)c1ccc(N2CCOCC2)cc1)N(C)C (stereo not drawn) [Irgacure® 369]
Dissolution, Mixture I (6 parts by weight photoinitiator in Mixture I): Completely
Dissolution, Mixture II (6 parts by weight photoinitiator in Mixture II): Only a small part
Dissolution, Mixture III (6 parts by weight photoinitiator in Mixture III): Only a small part
